“Also recorded” adds a separate entry of the source.
Legend:
[1] = molecular target: T1, HLA-B*0702 (Homo sapiens, UniProt P01889); test: Purified HLA class I peptide binding assay; conditions: HBV B07 supermotif peptides, Table XI; unit not given
T1 construct: endogenous in cells

Amino acid sequences for entries named in this document (tags omitted). A change or cut given only in a name is not applied to a line headed by its entry. Residues count along the entry.
UniProt P01889, 25-362: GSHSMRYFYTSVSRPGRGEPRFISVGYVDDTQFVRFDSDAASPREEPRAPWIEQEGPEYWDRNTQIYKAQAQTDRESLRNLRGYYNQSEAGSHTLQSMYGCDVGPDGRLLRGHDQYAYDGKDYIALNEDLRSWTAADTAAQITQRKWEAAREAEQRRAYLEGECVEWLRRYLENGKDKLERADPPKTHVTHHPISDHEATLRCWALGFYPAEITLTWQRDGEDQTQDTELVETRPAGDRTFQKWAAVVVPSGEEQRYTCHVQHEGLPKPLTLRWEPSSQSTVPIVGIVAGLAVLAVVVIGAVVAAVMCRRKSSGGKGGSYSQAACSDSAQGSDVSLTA

[2] = test system: B51; test: Purified HLA class I peptide binding assay (B*51); set-up: species or system human; conditions: for B*5101 (binding information): HBV B07 supermotif peptides, Table XI, unit not given
[3] = molecular target: HLA-A*0201 (Homo sapiens, UniProt P04439, D140Y/D185E/D98H/E176V/E277Q/G131W/G231S/I119V/I121R/I166T/I218V/L300P/L318F/N151K/N90K/P208A/P217A/Q86G/Q94H/R138H/R169H/T345S)
[4] = test system: common HLA-DR alleles; test: HLA-DR cross-reactive binding, sequential screening panels of DR assays; set-up: species or system human; conditions: primary through tertiary DR panels
[5] = molecular target: A*0202 (Homo sapiens, UniProt P04439, D140Y/D185E/D98H/E176V/E277Q/G131W/G231S/I119L/I121R/I166T/I218V/L180W/L300P/L318F/N151K/N90K/P208A/P217A/Q67R/Q86G/Q94H/R138H/R169H/T345S); test: Purified HLA class I peptide binding assay
[6] = molecular target: A*0203 (Homo sapiens, UniProt P04439, A173T/D140Y/D185E/D98H/E277Q/G131W/G231S/I119V/I121R/I166T/I218V/L180W/L300P/L318F/N151K/N90K/P208A/P217A/Q86G/Q94H/R138H/R169H/T345S); test: Purified HLA class I peptide binding assay
[7] = molecular target: A*0206 (Homo sapiens, UniProt P04439, D140Y/D185E/D98H/E176V/E277Q/F33Y/G131W/G231S/I119V/I121R/I166T/I218V/L300P/L318F/N151K/N90K/P208A/P217A/Q86G/Q94H/R138H/R169H/T345S); test: Purified HLA class I peptide binding assay
[8] = molecular target: A*6802 (Homo sapiens, UniProt P04439, A269V/D140Y/D185E/E176V/E277Q/E87N/F33Y/G231S/I121R/I166T/I218V/L180W/L300P/L318F/N151K/P208A/P217A/Q86R/R138H/R169H/S129P/T345S/V36M); test: Purified HLA class I peptide binding assay
[9] = molecular target: B*5401 (Homo sapiens, UniProt P01889, A329T/C349S/D138N/D201E/E176V/E187T/E204Q/E69G/I76V/K202T/L119W/R155S/R180L/S121T/S35A/S48A/V127L/V306I/V36M/Y140L); assay type: binding
[10] = test system: HLA-A11 transgenic mice; test: Transgenic CTL: CTL induction in HLA-A11 transgenic mice; assay type: in vivo; conditions: responders/tested
[11] = molecular target: A*0101 (Homo sapiens, UniProt P04439, A114D/A174V/A182V/D101N/D185E/E176A/E190D/L180R/Q94H/R68K/S129P/T187R/V100A/V91M/W191G)
[12] = test system: A*0201/Kb transgenic mice; conditions: mouse, in vivo

In the case of VPNLQSLTNL, the “B*0702 (binding information)” value [1] was 0.0008 and the “B*5101 (binding information)” value [2] was 0.0004.
With MMWYWGPSL the “A*0201 (binding information)” value [3] was 0.6400.
Compound `CC(C)C[C@H](NC(=O)[C@H](C)NC(=O)[C@H](CO)NC(=O)[C@@H]1CCCN1C(=O)[C@@H](N)C(C)C)C(=O)N[C@@H](CC(N)=O)C(=O)N1CCC[C@H]1C(=O)N[C@@H](C)C(=O)O` [Peptide 19.0016] has an IC50 [2] of 786 nM.
`CC[C@H](C)[C@H](NC(=O)[C@@H]1CCCN1C(=O)[C@H](CCCNC(=N)N)NC(=O)[C@H](CC(N)=O)NC(=O)[C@@H](NC(=O)[C@@H]1CCCN1C(=O)[C@H](CC(C)C)NC(=O)[C@H](CCCCN)NC(=O)[C@H](CCCNC(=N)N)NC(=O)[C@H](Cc1ccccc1)NC(=O)[C@H](CS)NC(=O)[C@H](CCC(N)=O)NC(=O)[C@@H](N)CCCCN)C(C)C)C(=O)N[C@@H](CC(=O)O)C(=O)N[C@@H](Cc1c[nH]c2ccccc12)C(=O)O` [Peptide 1298.04] was tested, and the “Total DR alleles bound” value [4] was 7.
For SPEHCSPHTTA, the “B*5101 (binding information)” value [2] was 0.0001.
In the case of `CC[C@H](C)[C@H](NC(=O)[C@H](C)NC(=O)[C@H](CO)NC(=O)[C@@H](NC(=O)[C@H](Cc1ccccc1)NC(=O)[C@H](CCC(N)=O)NC(=O)[C@H](C)NC(=O)[C@H](CC(C)C)NC(=O)[C@H](CC(C)C)NC(=O)[C@H](Cc1ccccc1)NC(=O)[C@@H]1CCCN1)[C@@H](C)O)C(=O)N[C@@H](CS)C(=O)N[C@@H](CO)C(=O)N[C@H](C(=O)N[C@H](C(=O)O)C(C)C)C(C)C` [Peptide F107.04], the “Total DR alleles bound” value [4] was 7.
For VLLDYQGMLPV, the “A*0201 (binding information)” value [3] was 0.5800, the “A*0202 (binding information)” value [5] was 0.2200 and the “A*0203 (binding information)” value [6] was 4.9000. For the same compound, the “A*0206 (binding information)” value [7] was 0.3400 and the “A*6602 (binding information)” value [8] was 0.0170.
With NPLGFFPDQL the “B*5101 (binding information)” value [2] was 0.0001.
In the case of TPPAYRPPNA, the “B*5401 (binding information)” value [9] was 0.0100.
`CC(C)C[C@H](NC(=O)CNC(=O)[C@@H](NC(=O)[C@H](Cc1ccccc1)NC(=O)[C@H](CC(N)=O)NC(=O)CNC(=O)[C@@H](NC(=O)[C@@H](N)CCCCN)C(C)C)[C@@H](C)O)C(=O)N[C@@H](Cc1ccc(O)cc1)C(=O)O` [peptide 1142.05] was tested, and the Immunogenicity transgenic ([10]; A3 supermotif peptides) was 0/3, the Immunogenicity transgenic ([10]; non-crossreactive A3-supermotif peptides) was 0/3 and the “binding to HLA-A1 (in words)” value [11] was “capable of binding HLA-A1”.
With `CC(C)C[C@H](NC(=O)[C@@H](N)CC(C)C)C(=O)N[C@H](C(=O)N1CCC[C@H]1C(=O)N[C@@H](Cc1ccccc1)C(=O)N[C@H](C(=O)N[C@@H](CCC(N)=O)C(=O)N[C@@H](Cc1c[nH]c2ccccc12)C(=O)N[C@@H](Cc1ccccc1)C(=O)N[C@H](C(=O)O)C(C)C)C(C)C)C(C)C` [1069.06] the “CTL induction / immunogenicity in HLA-A*0201 transgenic mice (in words)” value [12] was “induced CTL responses; also recorded: immunogenic” and the “binding affinity for A*6802 (in words)” value [8] was “high binding affinity”.
For `CC[C@H](C)[C@H](NC(=O)[C@H](Cc1c[nH]c2ccccc12)NC(=O)[C@H](CC(N)=O)NC(=O)[C@H](C)NC(=O)[C@H](C)N)C(=O)N[C@@H](CC(C)C)C(=O)N[C@@H](CCCNC(=N)N)C(=O)NCC(=O)N[C@H](C(=O)N[C@@H](CO)C(=O)N[C@@H](Cc1ccccc1)C(=O)N[C@H](C(=O)N[C@@H](Cc1ccc(O)cc1)C(=O)N[C@H](C(=O)N1CCC[C@H]1C(=O)O)C(C)C)C(C)C)[C@@H](C)O` [Peptide 1298.07], the “Total DR alleles bound” value [4] was 7.

Reference: patent US20070059799A1 (priority 1999, published 2007)
